Source: publication PMC6972567 (Journal of Clinical Pharmacology, 2019)

Experiment: Plasma pharmacokinetics of the CYP probe substrates and metabolites
Format: in vivo, human
Conditions: for Cmax: plasma
[1] = Period 2, CYP probes + upadacitinib 30 mg once daily, n = 20, mean ± SD

CC(=O)C[C@@H](c1ccccc1)c1c(O)c2ccccc2oc1=O [S‐warfarin]
CL/F (Period 1, CYP probes alone, n = 20, mean ± SD): 0.462 ± 0.122 L/h | Cmax (Period 1, CYP probes alone, single oral dose, healthy subjects n = 20, mean ± SD): 630 ± 84.4 ng/mL | CL/F [1]: 0.422 ± 0.120 L/h | Cmax [1]: 675 ± 121 ng/mL
